Measurements published in article PMC11099015, “The EV71 2A protease occupies the central cleft of SETD3 and disrupts SETD3-actin interaction” (Nature Communications, 2024).

Target: AP-actin (human β-actin A204E/P243K) (human, UniProt P60709 1-375)
Assay: BLI; competition by sequential loading: biotinylated SETD3 on SA biosensors, first 20 μM 2A (or G buffer) then 20 μM AP-actin, and the reverse order; G buffer; 25 °C
Conditions: both partners purified

B1: SETD3(1−498) (domain or fragment)
chain: MGKKSRVKTQKSGTGATATVSPKEILNLTSELLQKCSSPAPGPGKEWEEYVQIRTLVEKIRKKQKGLSVTFDGKREDYFPDLMKWASENGASVEGFEMVNFKEEGFGLRATRDIKAEELFLWVPRKLLMTVESAKNSVLGPLYSQDRILQAMGNIALAFHLLCERASPNSFWQPYIQTLPSEYDTPLYFEEDEVRYLQSTQAIHDVFSQYKNTARQYAYFYKVIQTHPHANKLPLKDSFTYEDYRWAVSSVMTRQNQIPTEDGSRVTLALIPLWDMCNHTNGLITTGYNLEDDRCECVALQDFRAGEQIYIFYGTRSNAEFVIHSGFFFDNNSHDRVKIKLGVSKSDRLYAMKAEVLARAGIPTSSVFALHFTEPPISAQLLAFLRVFCMTEEELKEHLLGDSAIDRIFTLGNSEFPVSWDNEVKLWTFLEDRASLLLKTYKTTIEEDKSVLKNHDLSVRAKMAIKLRLGEKEILEKAVKSAAVNREYYRQQMEEKAP
modifications: biotinylated with a biotinylation kit where it was immobilised in BLI; not in SEC, AUC or the crystal
B1: binds.
